# Assay: Multi-component pharmacokinetic study of GQD, GQD-GC and single herb extracts in rats (plasma, LC/MS/MS)
# Assay type: in vivo, Sprague-Dawley rats
# Conditions: for AUClast / Cmax / T1/2 / Tmax: plasma; for plasma concentrations, effect of GQD compared with Gan-Cao: rats, oral
# Experimental: Male Sprague-Dawley rats (220–250 g) were used for PK study, and the details were described in Supplemental Data. All procedures were in accordance with the National Institutes of Health Guide for the Care and Use of Laboratory Animals.
# For PK study of GQD and its component herbs, rats were randomly divided into six groups (n = 10 for each group) before oral administration.
# All blood samples were immediately centrifuged at 6,000 rpm (4°C) for 20 min to obtain plasma. The plasma samples were stored at −80°C.
# A Finnigan TSQ Quantum triple quadrupole mass spectrometer was connected to a Surveyor HPLC via ESI interface (ThermoFisher). High purity nitrogen was used as the sheath and auxiliary gas; Ultra-high purity argon was used as the collision gas (1.5 mTorr). Q1 and Q3 quadrupoles were set at unit resolution. […] The column temperature was 40°C. The mobile phase consisted of acetonitrile containing 2% (v/v) methanol (A) and water containing 0.1% (v/v) formic acid (B). […] An aliquot of 5 μL was injected for analysis. UV spectra were obtained by scanning from 200 to 400 nm. The mass spectrometer was operated in the (+)-ESI mode. The optimized parameters were as follows: sheath gas (N2), 50 arb; auxiliary gas (N2), 5 arb; spray voltage, 4.0 kV; capillary temperature, 330°C; collision energy, see Table S1. Analytes were detected in the selected reaction monitoring (SRM) mode. Data were processed by Xcalibur 2.0.7 software (ThermoFisher).
# LC/MS/MS calibration and quantitation data were processed with Xcalibur 2.0.7 software (ThermoFisher). The maximal plasma concentrations (Cmax) and their time of occurrence (Tmax) were obtained directly from the measured data. Other pharmacokinetic parameters were calculated by non-compartment or compartment models using WinNonlin® software (v6.1, Pharsight). Unless otherwise stated, results were expressed as the mean ± SD. Statistical significance in differences of the means was determined by Student's t–test, with a significance level of P < 0.05.
# Herbal materials and extracts.
# The four component herbs, Puerariae Lobatae Radix (Ge-Gen, GG), Scutellariae Radix (Huang-Qin, HQ), Coptidis Rhizoma (Huang-Lian, HL), and Glycyrrhizae Radix et Rhizoma Praeparata cum Melle (Gan-Cao, GC) were purchased from Tianheng Pharmacy. GQD was prepared by decocting the four component herbs […]
# pre-extraction of Ge-Gen using 200 mL of water for 0.5 h. The decoctions were combined, filtered, and concentrated in vacuum at 50 °C. GQD-GC was prepared using the same procedure, except that Gan-Cao was removed from the formula. Final concentration of the GQD-GC extract was equivalent to 1.0 g of the crude drugs per mL. For single herb extracts, the herbs were decocted in 8-fold volume of water for […]
# Final concentrations of the extracts were 1.0 g/mL for Ge-Gen, and 0.5 g/mL for Huang-Qin, Huang-Lian and […]
# For pharmacokinetic study, Male Sprague-Dawley rats (220-250 g) were obtained from the Laboratory Animal Center of Peking University Health Science Center. The […]
# The rats had free access to tap water and soy-free custom diet (Ke’ao Xieli Co.). All procedures were in accordance with the National Institutes of Health Guide for the Care and Use of Laboratory Animals […]
# Experimental details for the PK study
# 1. Preparation of internal standard solution, calibration standard solutions, and quality control solutions […]
# internal standard solution. Reference standard compounds were dissolved in the internal standard solution to prepare individual stock solutions (1.0 mg/mL). These […]
# each compound. The standard solution was then serially diluted to obtain calibration […]
# Quality control stock solutions were prepared at three concentration levels as high QC (HQC), middle QC (MQC), and low QC (LQC), based on linear ranges of the analytes.
# 2.1. Sample preparation for pharmacokinetic study
# The calibration standard and quality control solutions for pharmacokinetic study were […]
# [1] = GC (Gan-Cao) group: rats, oral extract 2.36 g/kg
# [2] = GQD group: rats, oral GQD extract 18.9 g/kg
Substance,AUClast [1],Cmax [1],T1/2 [1],Tmax [1],AUClast [2],Cmax [2],T1/2 [2],Tmax [2],"plasma concentrations, effect of GQD compared with Gan-Cao","AUClast (GQD group: rats, oral GQD 18.9 g/kg (1.5-fold of clinical dosage))"
isoliquiritin apioside [Compound 34],32.49 ± 5.6 ng·h/mL,2.67 ± 1.33 ng/mL,6.05 ± 0.89 h,2.89 ± 0.76 h,40.83 ± 10.23 ng·h/mL,3.28 ± 1.23 ng/mL,5.35 ± 1.41 h,3.68 ± 8.09 h,improved,–
liquiritin apioside [Compound 33],278.49 ± 1.41 ng·h/mL,13.53 ± 0.78 ng/mL,13.11 ± 6.66 h,1.59 ± 0.09 h,514.13 ± 7.53 ng·h/mL,12.6 ± 0.14 ng/mL,15.43 ± 2.23 h,2.09 ± 0.24 h,improved,> 300 ng·h/mL
